In paper PMC7320145, “Substrate Channeling via a Transient Protein-Protein Complex: The case of D-Glyceraldehyde-3-Phosphate Dehydrogenase and L-Lactate Dehydrogenase” (Scientific Reports, 2020):

Key:
[1] = target: baker's yeast D-glyceraldehyde-3-phosphate dehydrogenase (baker's yeast) (UniProt P00359)
[2] = target: rabbit muscle D-glyceraldehyde-3-phosphate dehydrogenase (rabbit) (UniProt P46406)
[3] = target: rabbit muscle D-glyceraldehyde-3-phosphate dehydrogenase (rabbit) (UniProt P46406); remark: listed apart in the source
[4] = target: baker's yeast D-glyceraldehyde-3-phosphate dehydrogenase (baker's yeast) (UniProt P00359); remark: listed apart in the source

apparent KM of rmLDH with byGAPDH-NADH complex as substrate (630 μM pyruvate) [1]: 78 µM
apparent Vmax of rmLDH with byGAPDH-NADH complex as substrate (630 μM pyruvate) (units per milligram) [1]: 241
apparent KM of rmLDH with rmGAPDH-NADH complex as substrate (630 μM pyruvate) [2]: 35 µM
apparent Vmax of rmLDH with rmGAPDH-NADH complex as substrate (630 μM pyruvate) (units per milligram) [2]: 8.2
ratio between measured rmLDH activity and the calculated free-diffusion activity; 40 μM NADH, rmGAPDH 100 to 240 μM of NADH binding sites; ratio rises from 1.2 to 1.85 fold [3]: 1.85 fold
ratio between measured rmLDH activity and the calculated free-diffusion activity; rmGAPDH fixed at 200 μM NADH binding sites, NADH decreased from 40 to 10 μM; ratio rises from 1.65 to 2.25 fold [3]: 2.25 fold
ratio between measured rmLDH activity and the calculated free-diffusion activity; 40 μM NADH, byGAPDH 240 to 480 μM of NADH binding sites; ratio rises from 3.5 to 5.8 fold [4]: 5.8 fold
ratio between measured rmLDH activity and the calculated free-diffusion activity; byGAPDH fixed at 480 μM NADH binding sites, NADH decreased from 40 to 10 μM; ratio rises from 4.85 to 6.2 fold [4]: 6.2 fold
Substance: rabbit muscle L-lactate dehydrogenase (from UniProt P13491 2-332) (enzyme)
